Experimental data from paper PMC9596378, “Discovery and molecular basis of subtype-selective cyclophilin inhibitors” (Nature Chemical Biology, 2022).
Where two headings read alike, the source gives them in different places.

Amino acid sequences for entries named in this document (tags omitted). Residues count along the entry.
UniProt Q08752, 1-183 limits assumed: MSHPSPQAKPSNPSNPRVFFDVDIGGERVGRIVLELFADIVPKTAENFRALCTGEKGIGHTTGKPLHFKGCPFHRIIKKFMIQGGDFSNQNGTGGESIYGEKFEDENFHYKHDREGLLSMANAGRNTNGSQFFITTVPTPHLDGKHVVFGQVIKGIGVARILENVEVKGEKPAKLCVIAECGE
UniProt P62937, whole entry: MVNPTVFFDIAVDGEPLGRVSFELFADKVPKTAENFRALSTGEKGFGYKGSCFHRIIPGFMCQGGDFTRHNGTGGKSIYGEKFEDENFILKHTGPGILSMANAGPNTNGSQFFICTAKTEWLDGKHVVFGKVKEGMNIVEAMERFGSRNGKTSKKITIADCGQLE
UniProt P45877, 24-212 limits assumed: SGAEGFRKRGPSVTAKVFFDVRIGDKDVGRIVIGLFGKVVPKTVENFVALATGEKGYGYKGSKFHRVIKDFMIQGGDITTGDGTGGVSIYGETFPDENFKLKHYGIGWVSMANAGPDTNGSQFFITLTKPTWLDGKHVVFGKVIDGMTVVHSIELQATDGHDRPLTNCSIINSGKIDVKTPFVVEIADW
UniProt P30405, 45-207 limits assumed: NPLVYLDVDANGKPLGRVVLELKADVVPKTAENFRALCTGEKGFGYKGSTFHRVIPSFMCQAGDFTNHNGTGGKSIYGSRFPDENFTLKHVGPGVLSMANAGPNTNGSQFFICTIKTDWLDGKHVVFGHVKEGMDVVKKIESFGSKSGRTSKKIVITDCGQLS
UniProt Q9UNP9, 131-301 limits assumed: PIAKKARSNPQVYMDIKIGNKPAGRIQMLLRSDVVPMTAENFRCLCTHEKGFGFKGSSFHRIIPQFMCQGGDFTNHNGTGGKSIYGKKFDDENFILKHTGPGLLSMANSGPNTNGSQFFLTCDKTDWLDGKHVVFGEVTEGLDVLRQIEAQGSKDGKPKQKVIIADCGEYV
UniProt Q13427, 1-179 limits assumed: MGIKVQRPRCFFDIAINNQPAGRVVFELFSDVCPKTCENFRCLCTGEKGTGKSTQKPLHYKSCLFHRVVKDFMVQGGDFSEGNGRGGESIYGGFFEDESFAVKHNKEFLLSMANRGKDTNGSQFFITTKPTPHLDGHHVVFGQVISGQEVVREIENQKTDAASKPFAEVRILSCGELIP
UniProt O43447, whole entry: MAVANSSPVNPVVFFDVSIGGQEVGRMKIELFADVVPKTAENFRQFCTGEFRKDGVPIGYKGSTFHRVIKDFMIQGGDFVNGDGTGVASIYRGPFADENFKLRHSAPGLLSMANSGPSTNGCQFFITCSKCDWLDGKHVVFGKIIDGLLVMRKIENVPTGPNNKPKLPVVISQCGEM
UniProt Q96BP3, 473-646 limits assumed: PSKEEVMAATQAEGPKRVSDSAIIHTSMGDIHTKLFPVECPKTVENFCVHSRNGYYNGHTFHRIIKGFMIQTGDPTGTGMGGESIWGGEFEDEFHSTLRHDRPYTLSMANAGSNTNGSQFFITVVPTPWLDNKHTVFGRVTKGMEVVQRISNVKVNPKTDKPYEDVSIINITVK
UniProt P30414, 7-179 limits assumed: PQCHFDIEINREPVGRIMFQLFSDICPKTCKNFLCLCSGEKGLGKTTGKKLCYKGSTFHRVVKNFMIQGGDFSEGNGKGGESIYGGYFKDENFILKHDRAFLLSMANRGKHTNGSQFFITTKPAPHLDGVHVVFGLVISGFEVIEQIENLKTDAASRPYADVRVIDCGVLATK
UniProt Q9Y3C6, whole entry: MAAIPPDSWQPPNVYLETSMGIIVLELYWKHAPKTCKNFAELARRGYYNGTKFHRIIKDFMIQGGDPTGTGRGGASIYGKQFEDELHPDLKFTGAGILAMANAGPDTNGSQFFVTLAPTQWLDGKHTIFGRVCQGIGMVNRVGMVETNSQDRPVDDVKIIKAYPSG
UniProt P23284, 34-216 limits assumed: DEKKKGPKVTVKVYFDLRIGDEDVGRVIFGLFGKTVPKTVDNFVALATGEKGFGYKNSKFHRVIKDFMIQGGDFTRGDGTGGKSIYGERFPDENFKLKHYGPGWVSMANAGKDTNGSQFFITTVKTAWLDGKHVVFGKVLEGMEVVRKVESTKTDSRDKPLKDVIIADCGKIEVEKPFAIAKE

How the values were obtained:
Cyp40 = Cyp40 (Homo sapiens, UniProt Q08752); assay: Chymotrypsin coupled prolyl-isomerase assay; assay type: biochemical
CypA = CypA (Homo sapiens, UniProt P62937); assay: Chymotrypsin coupled prolyl-isomerase assay; assay type: biochemical
CypC = CypC (Homo sapiens, UniProt P45877); assay: Chymotrypsin coupled prolyl-isomerase assay; assay type: biochemical
CypD = CypD (Homo sapiens, UniProt P30405); assay: Chymotrypsin coupled prolyl-isomerase assay; assay type: biochemical; details: read-out: Wild-Type Cyclophilin Prolyl Isomerase Inhibition IC50 Values, CypD; wild-type CypD
CypE = CypE (Homo sapiens, UniProt Q9UNP9); assay: Chymotrypsin coupled prolyl-isomerase assay; assay type: biochemical; details: read-out: Wild-Type Cyclophilin Prolyl Isomerase Inhibition IC50 Values, CypE; wild-type CypE
CypG = CypG (Homo sapiens, UniProt Q13427); assay: Chymotrypsin coupled prolyl-isomerase assay; assay type: biochemical
CypH = CypH (Homo sapiens, UniProt O43447); assay: Chymotrypsin coupled prolyl-isomerase assay; assay type: biochemical
PPWD1 = PPWD1 (Homo sapiens, UniProt Q96BP3); assay: Chymotrypsin coupled prolyl-isomerase assay; assay type: biochemical
NKTR = NKTR (Homo sapiens, UniProt P30414); assay: Chymotrypsin coupled prolyl-isomerase assay; assay type: biochemical; details: read-out: Wild-Type Cyclophilin Prolyl Isomerase Inhibition IC50 Values, NKTR; wild-type NKTR
PPIL1 = PPIL1 (Homo sapiens, UniProt Q9Y3C6); assay: Chymotrypsin coupled prolyl-isomerase assay; assay type: biochemical
CypB = CypB (Homo sapiens, UniProt P23284)
[1] = read-out: Wild-Type Cyclophilin Prolyl Isomerase Inhibition IC50 Values, CypA, wild-type CypA
[2] = read-out: Wild-Type Cyclophilin Prolyl Isomerase Inhibition IC50 Values, CypC, wild-type CypC
[3] = read-out: IC50 CypG, prolyl-isomerase inhibition, 5 nM cyclophilin
[4] = read-out: Wild-Type Cyclophilin Prolyl Isomerase Inhibition IC50 Values, CypG, wild-type CypG
[5] = read-out: Wild-Type Cyclophilin Prolyl Isomerase Inhibition IC50 Values, CypH, wild-type CypH
[6] = read-out: IC50 PPWD1, prolyl-isomerase inhibition, 5 nM cyclophilin
[7] = read-out: Wild-Type Cyclophilin Prolyl Isomerase Inhibition IC50 Values, PPWD1, wild-type PPWD1
[8] = read-out: Wild-Type Cyclophilin Prolyl Isomerase Inhibition IC50 Values, PPIL1, wild-type PPIL1
[9] = read-out: Wild-Type Cyclophilin Prolyl Isomerase Inhibition IC50 Values, CypB, wild-type CypB
[10] = read-out: Wild-Type Cyclophilin Prolyl Isomerase Inhibition IC50 Values, Cyp40, wild-type Cyp40
[11] = read-out: IC50 CypH, prolyl-isomerase inhibition, 5 nM cyclophilin
[12] = read-out: IC50 CypA, prolyl-isomerase inhibition, 5 nM cyclophilin
[13] = read-out: IC50 PPIL1, prolyl-isomerase inhibition, 5 nM cyclophilin

Row | Compound | IC50 (Cyp40) [nM] | IC50 (CypA; [1]) [nM] | IC50 (CypC; [2]) [nM] | IC50 (CypD) [nM] | IC50 (CypE) [nM] | IC50 (CypG; [3]) [nM] | IC50 (CypG; [4]) [nM] | IC50 (CypH; [5]) [nM] | IC50 (PPWD1; [6]) [nM] | IC50 (PPWD1; [7]) [nM] | IC50 (NKTR) [nM] | IC50 (PPIL1; [8]) [nM] | IC50 (CypB; [9]) [nM] | IC50 (Cyp40; [10]) [nM] | IC50 (CypH; [11]) [nM] | IC50 (CypA; [12]) [nM] | IC50 (PPIL1; [13]) [nM] | IC50 (Cyp40; read-out: IC50 Cyp40, prolyl-isomerase inhibition, 5 nM cyclophilin) [nM] | IC50 (CypC; read-out: IC50 CypC, prolyl-isomerase inhibition, 5 nM cyclophilin) [nM] | IC50 (CypB; read-out: IC50 CypB, prolyl-isomerase inhibition, 5 nM cyclophilin) [nM]
1 | NCCOCCNC(=O)[C@@H]1CCNC(=O)/C=C/C(=O)N2CCC[C@](Cc3ccccc3)(C2)C(=O)N[C@@H](Cc2ccc(-c3ccc(CCCC(=O)O)cc3)cc2)C(=O)NCc2ccccc2CC(=O)N1 | 4000 | 1800 | 21000 | 120 | 300 | 30000 | 30000 | > 50000 | 36000 | 36000 | > 50000 | 600 | 600 | – | – | – | – | – | – | –
2 | NCCOCCNC(=O)[C@@H]1CCNC(=O)/C=C/C(=O)N2CCC[C@](Cc3ccccc3)(C2)C(=O)N[C@@H](Cc2ccc(-c3ccc4[nH]c(C(=O)O)cc4c3)cc2)C(=O)NCc2ccccc2CC(=O)N1 | 3000 | 700 | 4000 | 30 | 100 | – | > 25000 | > 25000 | – | > 25000 | > 25000 | 300 | 34 | – | – | – | – | – | – | –
3 | N#Cc1ccc(-c2ccc(C[C@@H]3NC(=O)[C@]4(Cc5ccccc5)CCCN(C4)C(=O)/C=C/C(=O)NCC[C@@H](C(=O)NCCOCCN)NC(=O)Cc4ccccc4CNC3=O)cc2)cc1 | – | 400 | 360 | 70 | 400 | – | 6000 | 40000 | – | 300 | 10000 | 120 | 160 | 190 | 40000 | – | – | – | – | –
4 | C[C@@H](Oc1ccc(-c2ccc(C[C@@H]3NC(=O)[C@]4(Cc5ccccc5)CCCN(C4)C(=O)/C=C/C(=O)NCC[C@@H](C(=O)NCCOCCN)NC(=O)Cc4ccccc4CNC3=O)cc2)cc1)C(=O)O | > 10000 | 10000 | > 10000 | 1000 | 2100 | 10000 | 10000 | > 10000 | – | > 10000 | > 10000 | 2000 | 2000 | – | – | 10000 | 2000 | – | – | –
5 | Cc1cc(CCC(=O)O)ccc1-c1ccc(C[C@@H]2NC(=O)[C@]3(Cc4ccccc4)CCCN(C3)C(=O)/C=C/C(=O)NCC[C@@H](C(=O)NCCOCCN)NC(=O)Cc3ccccc3CNC2=O)cc1 | – | 2700 | 8000 | 270 | 1100 | – | > 50000 | > 50000 | – | > 50000 | > 50000 | 3000 | 1100 | 5000 | – | – | – | – | – | –
6 | N#CCc1ccc(-c2ccc(C[C@@H]3NC(=O)[C@]4(Cc5ccccc5)CCCN(C4)C(=O)/C=C/C(=O)NCC[C@@H](C(=O)NCCOCCN)NC(=O)Cc4ccccc4CNC3=O)cc2)cc1 | – | 50 | 60 | 10 | 14 | – | 4000 | 30000 | – | 150 | 17000 | 15 | 18 | 30 | – | – | 20 | 31 | – | –
7 | NCCOCCNC(=O)[C@@H]1CCNC(=O)/C=C/C(=O)N2CCC[C@](Cc3ccccc3)(C2)C(=O)N[C@@H](Cc2ccc(-c3cccc(CCC(=O)O)c3)cc2)C(=O)NCc2ccccc2CC(=O)N1 | 3000 | 500 | 6000 | 100 | 500 | – | 13000 | > 100000 | – | > 100000 | > 100000 | 1100 | 300 | – | – | – | – | – | – | –
8 | CS(=O)(=O)c1ccc(-c2ccc(C[C@@H]3NC(=O)[C@]4(Cc5ccccc5)CCCN(C4)C(=O)/C=C/C(=O)NCC[C@@H](C(=O)NCCOCCN)NC(=O)Cc4ccccc4CNC3=O)cc2)cc1 | – | 3000 | 3500 | 400 | 1400 | – | 27000 | 42000 | – | 4200 | 70000 | 430 | 600 | 900 | – | – | – | – | – | –
9 | NCCOCCNC(=O)[C@@H]1CCNC(=O)/C=C/C(=O)N2CCC[C@](Cc3ccccc3)(C2)C(=O)N[C@@H](Cc2ccc(-c3cccc(O)c3)cc2)C(=O)NCc2ccccc2CC(=O)N1 | – | 500 | 900 | 300 | 700 | – | > 50000 | > 50000 | – | 10000 | > 50000 | 1900 | 150 | 230 | – | – | – | – | – | –
10 | NCCOCCNC(=O)[C@@H]1CCNC(=O)/C=C/C(=O)N2CCC[C@](Cc3ccccc3)(C2)C(=O)N[C@@H](Cc2ccc(-c3ccc4cc(C(=O)O)oc4c3)cc2)C(=O)NCc2ccccc2CC(=O)N1 | 5000 | 800 | 11000 | 80 | 230 | – | 5000 | 10000 | – | > 10000 | > 10000 | 100 | 190 | – | 10000 | – | – | – | – | –
11 | NCCOCCNC(=O)[C@@H]1CCNC(=O)/C=C/C(=O)N2CCC[C@](Cc3ccccc3)(C2)C(=O)N[C@@H](Cc2ccc(-c3ccc4c(C(=O)O)coc4c3)cc2)C(=O)NCc2ccccc2CC(=O)N1 | 5000 | 1500 | 13000 | 110 | 250 | – | > 25000 | > 25000 | 40000 | 40000 | > 25000 | 320 | 260 | – | – | – | – | – | – | –
12 | C[C@H](Oc1ccc(-c2ccc(C[C@@H]3NC(=O)[C@]4(Cc5ccccc5)CCCN(C4)C(=O)/C=C/C(=O)NCC[C@@H](C(=O)NCCOCCN)NC(=O)Cc4ccccc4CNC3=O)cc2)cc1)C(=O)O | 500 | 2400 | 15000 | 170 | 700 | 9000 | 9000 | > 10000 | – | > 10000 | > 10000 | 1600 | 400 | – | – | – | – | – | 15000 | –
13 | Cc1cccc(-c2ccc(C[C@@H]3NC(=O)[C@]4(Cc5ccccc5)CCCN(C4)C(=O)/C=C/C(=O)NCC[C@@H](C(=O)NCCOCCN)NC(=O)Cc4ccccc4CNC3=O)cc2)c1 | – | 1200 | 500 | 390 | 1000 | – | > 50000 | > 100000 | – | 12000 | > 50000 | 3000 | 170 | 600 | – | – | – | – | – | –
14 | NCCOCCNC(=O)[C@@H]1CCNC(=O)/C=C/C(=O)N2CCC[C@](Cc3ccccc3)(C2)C(=O)N[C@@H](Cc2ccc(-c3ccc(CC[N+](=O)[O-])cc3)cc2)C(=O)NCc2ccccc2CC(=O)N1 | 1700 | 800 | 2200 | 95 | 140 | – | > 50000 | > 50000 | – | 7000 | > 50000 | 400 | 230 | – | – | – | – | – | – | –
15 | NCCOCCNC(=O)[C@@H]1CCNC(=O)/C=C/C(=O)N2CCC[C@](Cc3ccccc3)(C2)C(=O)N[C@@H](Cc2ccc(-c3ccc4c(c3)OCC4CC(=O)O)cc2)C(=O)NCc2ccccc2CC(=O)N1 (single isomer, unassigned) [B49] | > 10000 | 4000 | > 10000 | 300 | 600 | – | 2100 | > 10000 | – | > 10000 | > 10000 | 3000 | 1200 | – | – | 4000 | 3000 | – | – | 1200
16 | NCCOCCNC(=O)[C@@H]1CCNC(=O)/C=C/C(=O)N2CCC[C@](Cc3ccccc3)(C2)C(=O)N[C@@H](Cc2ccc(-c3ccncc3)cc2)C(=O)NCc2ccccc2CC(=O)N1 | 900 | 2500 | 1500 | 330 | 3000 | – | > 100000 | 60000 | – | 6000 | > 100000 | 1200 | 400 | – | 60000 | – | – | – | – | –
17 | NCCOCCNC(=O)[C@@H]1CCNC(=O)/C=C/C(=O)N2CCC[C@](Cc3ccccc3)(C2)C(=O)N[C@@H](Cc2ccc(O)cc2)C(=O)NCc2ccccc2CC(=O)N1 | 1100 | 1300 | 810 | 490 | 1100 | – | 19000 | 1500 | 10000 | 10000 | 39000 | 2200 | 300 | – | – | – | – | – | – | –
